# scFv variants of Ab-14 (heavy chain) against a SARS-CoV-2 spike peptide

Antigen: PDVDLGDISGINAS, a 14-residue peptide of the SARS-CoV-2 spike HR2 region.

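Phage display of a naive human antibody library on the peptide gave the parent. This is the validation round: designs drawn from the data on random variants, tested in the same kind of assay. Several design methods are mixed in this list. In AlphaSeq, yeast of one mating type display the scFv and yeast of the other type display the target. Pairs that bind mate more often; barcode pairs of the diploids are counted by sequencing. Read counts were normalised to the haploid input and turned into Kd by a linear fit to BCL2-family pairs of known affinity, for each replicate. The assay was run in six technical replicates.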

Parent: Ab-14, a human scFv built as VH, a 15-residue (Gly4Ser)3 linker, VL. Only the CDRs of the heavy chain vary.
VH: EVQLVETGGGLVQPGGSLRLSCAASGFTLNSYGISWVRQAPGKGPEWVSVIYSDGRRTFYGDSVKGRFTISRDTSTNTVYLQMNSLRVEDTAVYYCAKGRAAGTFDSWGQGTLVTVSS
VL: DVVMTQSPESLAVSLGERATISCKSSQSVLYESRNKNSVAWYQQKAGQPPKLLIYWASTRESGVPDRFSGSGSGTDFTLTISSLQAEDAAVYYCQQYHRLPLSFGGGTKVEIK

The parent's heavy chain CDRs are GFTLNSYGIS, VIYSDGRRTFYGDSVK, GRAAGTFDS; each variant's own CDRs replace them letter for letter. This list holds designs with more than six substitutions. Values are log10 of the apparent Kd in nM; lower means stronger binding. The mean shown is taken over the replicates in which the pair was detected. A pair that was not seen in that replicate is written "nd"; this usually means weak binding, but a binder can also be missed.

Variant GYDIDEYGIS | VIYADGQRTAYQNNVK | GEQDGIMTY showed nd, nd, nd, nd, nd, nd (controls 0 of 18).
Variant GFDLNEYGIS | VIYADGMRTFYTDSVK | GNNAGTFDV showed -0.79, -0.46, -0.85, -0.71, -0.87, -0.42 (mean -0.68; controls 0 of 18).
Variant GFDLNEYGIS | VIYADGRRTAYADSVK | GEQAGTFDV showed -0.50, 0.10, 0.19, -0.44, -0.46, -0.30 (mean -0.24; controls 0 of 18).
Variant GFDLNEYGIS | VIYADGRRTFYSDSVK | GEAGGTFDT showed -0.07, 0.79, 0.23, 0.24, 0.33, -0.09 (mean 0.24; controls 0 of 18).
Variant GFDLNEYGIS | VIYADGRRTAYSDSVK | GGVAGTFDL showed -0.45, -0.91, -0.81, -0.73, -0.75, -0.51 (mean -0.69; controls 0 of 18).
Variant GFDLNEYGIS | VIYADGQRTFYADSVK | GENAGTFDV showed -0.05, -0.08, -0.38, -0.33, -0.38, -0.21 (mean -0.24; controls 0 of 18).
Variant GFDLEEYGIS | VIYADGRRTFYADSVK | GNVAGTFDS showed -0.36, -0.12, -0.34, -0.45, -0.36, -0.13 (mean -0.29; controls 0 of 18).
Variant GFDLEDYGIS | VIYADGMRTAYADSVK | GEIAGTFDV showed 0.22, 0.71, 0.06, 0.05, 1.20, nd (mean 0.45; controls 0 of 18).
Variant GFDLNEYGIS | VIYADGMRTAYSDDVK | GNVAGTFDV showed 0.38, 0.85, 0.52, 1.09, 0.09, 0.69 (mean 0.60; controls 0 of 18).
Variant GFDIDEYGIS | VIYADGKRQALIDAVK | GTLSGTFIA showed nd, nd, nd, nd, nd, nd (controls 0 of 18).
Variant GFDLNEYGIS | VIYADGRRTFYLDSVK | GQLAGTFDQ showed -0.30, -0.57, -0.59, -0.70, -0.93, -0.74 (mean -0.64; controls 0 of 18).
Variant GFDLNEYGIS | VIYADGVRTAYIDSVK | GNQAGTFDL showed -0.07, 0.31, -0.99, 0.11, 0.10, -0.01 (mean -0.09; controls 0 of 18).
Variant GFDLNEYGVS | VIYADGMRSSYQDSVK | GSNVSLFDV showed nd, 2.14, nd, nd, nd, nd (controls 1 of 18).
Variant GNDINEYGIS | VIYADGMRTAYLNDVK | GQMAGLFIM showed nd, nd, nd, nd, nd, nd (controls 0 of 18).
Variant GFDLDEYGIS | VIYADGRRTFYADSVK | GNLAGTFDA showed -1.10, -0.87, -1.05, -1.28, -1.19, -0.33 (mean -0.97; controls 0 of 18).
Variant GFQLDEYGIS | VIYADGRRTFYADSVK | GENAGTFDM showed -0.45, -0.82, -0.97, -0.55, -0.84, -0.51 (mean -0.69; controls 0 of 18).
Variant GFDLDEYGIS | VIYADGMRTAYADSVK | GEVAGTFDA showed -0.05, -0.28, -0.28, -0.76, -0.47, -0.23 (mean -0.34; controls 0 of 18).
Variant SFSLDDYGIS | VIYADGLRKAYVDEVK | GYVAGTFDE showed -0.01, -0.16, 0.31, 0.04, -0.12, -0.17 (mean -0.02; controls 0 of 18).
Variant GFDLNEYGIS | VIYADGKRTFYSDSVK | GTAGGTFDI showed 0.17, 0.07, 0.07, -0.22, -0.25, 0.55 (mean 0.06; controls 0 of 18).
Variant GFDLNEYGIS | VIYADGRRTAYADDVK | GNTAGTFDQ showed -0.28, -0.22, 0.43, -0.12, 0.18, 0.01 (mean 0.00; controls 0 of 18).
Variant GFDLNEYGIS | VIYADGMRTAYADKVK | GEVAGTFDQ showed -0.12, -0.63, -0.74, -0.54, -0.57, 0.09 (mean -0.42; controls 0 of 18).
Variant GFDLNEYGIS | VIYADGKRTAYQDSVK | GNQAGTFDV showed -0.46, 0.05, 0.63, 0.07, -0.28, 0.14 (mean 0.02; controls 0 of 18).
Variant GKNIEEYGVS | VIYADGKRTAYANNFK | GSNAGSFVS showed nd, nd, nd, nd, nd, nd (controls 0 of 18).
Variant GFDLDEYGIS | VIYADGMRSAYLDSFK | GIYGNGLWF showed nd, nd, nd, nd, nd, nd (controls 0 of 18).
Variant DFGLNSYGIS | VIYSDGQRTFYLDKVK | GAVAGTFDS showed nd, nd, nd, nd, nd, nd (controls 0 of 18).
Variant GFNLEDYGIS | VIYADGSRSSYIESVK | GHWGADFIL showed nd, nd, nd, nd, nd, nd (controls 0 of 18).
Variant GFDLDEYGIS | VIYADGMRTAYSDSVK | GETAGTFDV showed -0.04, 0.41, -0.07, 0.14, -0.37, 0.11 (mean 0.03; controls 0 of 18).
Variant GVTLNSIGIS | VIYADGRRTFYVDIVK | GRAAGTNKS showed nd, nd, nd, nd, nd, nd (controls 0 of 18).
Variant GFDLNEYGIS | VIYADGKRTAYLQNVK | GENAGFDQY showed nd, nd, nd, nd, nd, nd (controls 0 of 18).
Variant GFNLDEYGIS | VIYADGMRTQYKDQVK | GNLKAHNMT showed nd, nd, nd, nd, nd, nd (controls 0 of 18).

The first 3 variants above that were never detected:

CDR-H1	CDR-H2	CDR-H3	replicates, log10 nM	mean log10 Kd (nM)	control signals
GYDIDEYGIS	VIYADGQRTAYQNNVK	GEQDGIMTY	nd, nd, nd, nd, nd, nd	nd	0/18
GFDIDEYGIS	VIYADGKRQALIDAVK	GTLSGTFIA	nd, nd, nd, nd, nd, nd	nd	0/18
GNDINEYGIS	VIYADGMRTAYLNDVK	GQMAGLFIM	nd, nd, nd, nd, nd, nd	nd	0/18

In the paper, a design with two or fewer of six values counts as a poor binder. Values of this round are not directly comparable with the first-round values of the same sequences. Of ten entries with the parent sequence, four were seen in most replicates (averages 0.34 to 2.37), three in one and three in none, so single entries are noisy. Background: pairings of all heavy chain designs with three empty control strains gave a value in 1% of cases (median 2.08, 5th percentile 0.84). Values in that range, when seen in few replicates, are hard to tell from nonspecific mating. Also given: how often the same scFv was detected with the empty control strains.

Source: Li et al. 2023 (doi:10.1038/s41467-023-39022-2), MIT Lincoln Laboratory and A-Alpha Bio; data file from the FLAb repository.